The chains behind the UniProt entries cited, without tags or fusion partners.
UniProt P42336, whole entry H1047R: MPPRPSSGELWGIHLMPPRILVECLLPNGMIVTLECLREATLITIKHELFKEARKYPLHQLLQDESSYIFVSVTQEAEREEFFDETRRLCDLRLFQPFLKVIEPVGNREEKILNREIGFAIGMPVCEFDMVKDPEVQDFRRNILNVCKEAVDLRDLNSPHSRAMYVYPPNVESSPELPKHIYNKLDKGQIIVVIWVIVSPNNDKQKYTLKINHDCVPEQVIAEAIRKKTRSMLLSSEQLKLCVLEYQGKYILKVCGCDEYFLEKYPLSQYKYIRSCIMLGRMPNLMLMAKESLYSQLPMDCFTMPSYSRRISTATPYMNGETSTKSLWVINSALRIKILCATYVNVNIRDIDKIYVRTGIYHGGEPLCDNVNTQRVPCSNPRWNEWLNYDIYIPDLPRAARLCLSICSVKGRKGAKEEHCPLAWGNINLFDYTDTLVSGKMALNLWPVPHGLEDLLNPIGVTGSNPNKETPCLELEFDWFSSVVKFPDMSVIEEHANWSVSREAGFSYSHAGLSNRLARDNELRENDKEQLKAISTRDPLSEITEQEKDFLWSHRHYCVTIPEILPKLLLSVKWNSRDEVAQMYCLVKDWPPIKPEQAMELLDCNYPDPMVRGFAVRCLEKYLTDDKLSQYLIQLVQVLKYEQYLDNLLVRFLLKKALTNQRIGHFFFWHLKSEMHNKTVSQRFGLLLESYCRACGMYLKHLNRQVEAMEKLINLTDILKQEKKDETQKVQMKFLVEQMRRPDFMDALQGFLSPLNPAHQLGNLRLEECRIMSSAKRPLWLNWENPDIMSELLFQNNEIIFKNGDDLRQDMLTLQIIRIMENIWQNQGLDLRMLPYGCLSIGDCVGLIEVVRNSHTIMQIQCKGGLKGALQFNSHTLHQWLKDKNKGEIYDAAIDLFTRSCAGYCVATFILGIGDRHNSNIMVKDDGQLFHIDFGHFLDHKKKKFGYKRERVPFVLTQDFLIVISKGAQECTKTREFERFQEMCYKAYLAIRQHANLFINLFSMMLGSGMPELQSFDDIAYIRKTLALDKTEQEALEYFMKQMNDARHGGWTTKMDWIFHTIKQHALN

According to ChEMBL document CHEMBL5150064 (J Med Chem, 2022):

Target: Phosphatidylinositol 4,5-bisphosphate 3-kinase catalytic subunit alpha isoform (Homo sapiens, UniProt P42336, H1047R)

EC50: 24 nM
SMILES: Cc1nc(-c2cn3c(n2)-c2ccc(-c4cnn(C(C)(C)C(N)=O)c4)cc2OCC3)n(C(C)C)n1 [TASELISIB]
